From publication PMC11951083, “Highly Specific Miniaturized Fluorescent Monoacylglycerol Lipase Probes Enable Translational Research” (Journal of the American Chemical Society, 2025)

Chains of the proteins cited; added tags and fusions are not shown.
UniProt O35678, whole entry: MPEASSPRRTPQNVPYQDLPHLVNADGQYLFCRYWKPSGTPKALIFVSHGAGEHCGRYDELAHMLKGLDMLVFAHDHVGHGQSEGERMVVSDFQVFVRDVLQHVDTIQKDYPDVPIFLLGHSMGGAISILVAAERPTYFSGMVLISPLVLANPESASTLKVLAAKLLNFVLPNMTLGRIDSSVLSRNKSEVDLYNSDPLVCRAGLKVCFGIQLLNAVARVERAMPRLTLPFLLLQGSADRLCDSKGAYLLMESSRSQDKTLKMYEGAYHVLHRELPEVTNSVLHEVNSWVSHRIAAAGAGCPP
UniProt Q99685, whole entry: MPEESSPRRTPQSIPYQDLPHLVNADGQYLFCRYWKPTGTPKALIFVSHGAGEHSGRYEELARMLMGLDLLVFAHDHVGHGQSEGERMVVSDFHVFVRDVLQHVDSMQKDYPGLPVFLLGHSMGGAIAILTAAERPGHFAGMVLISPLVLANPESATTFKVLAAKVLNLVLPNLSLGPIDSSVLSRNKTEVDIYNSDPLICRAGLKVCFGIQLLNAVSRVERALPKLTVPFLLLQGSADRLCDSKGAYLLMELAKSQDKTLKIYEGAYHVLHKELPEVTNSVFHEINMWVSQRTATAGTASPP

Legend:
[1] = target: mMAGL (Mus musculus, UniProt O35678); assay: Native MS (RapidFire) 2-AG substrate assay, purified mouse MAGL; details: read-out: IC50 against purified MAGL ± SEM, Mouse; SI Table 1
[2] = target: MAGL (Homo sapiens, UniProt Q99685); assay: Native MS (RapidFire) 2-AG substrate assay, purified human MAGL; type: biochemical; details: read-out: IC50 against purified MAGL ± SEM, Human; SI Table 1

| IC50 [1] | IC50 [2] | SMILES |
| --- | --- | --- |
| > 10 µM |  | O=C1CO[C@H]2CCN(C(=O)N3CC(COC4=C5C=CC=[N+]5[B-](F)(F)n5cccc54)C3)C[C@H]2N1 |
| > 10 µM | > 10 µM | O=C1CO[C@H]2CCN(C(=O)N3CC=C(C4=C5C=CC=[N+]5[B-](F)(F)n5cccc54)CC3)C[C@H]2N1 |
| > 10 µM | 6.32 µM | O=C1CO[C@H]2CCN(C(=O)N3CCC(OC4=C5C=CC=[N+]5[B-](F)(F)n5cccc54)CC3)C[C@H]2N1 |

The next lines start with the compound.

| SMILES | IC50 [1] | IC50 [2] |
| --- | --- | --- |
| O=C1NC2(CO1)CN(C(=O)N1CC3(CC(OC4=C5C=CC=[N+]5[B-](F)(F)n5cccc54)C3)C1)C2 | 0.00471 µM |  |
| O=C1CO[C@H]2CCN(C(=O)N3CC4(CCC(=CC5=C6C=CC=[N+]6[B-](F)(F)n6cccc65)CC4)C3)C[C@H]2N1 | 0.00185 µM |  |
| O=C(OC(C(F)(F)F)C(F)(F)F)N1CC2(CC(=CC3=C4C=CC=[N+]4[B-](F)(F)n4cccc43)C2)C1 | 0.00941 µM |  |
